Earlier results on one compound are cited in patent US12070523B2, “Sanitization of an article using in situ electrolysis” (APPLIED BIOCIDE GMBH, priority 2022, dated 2024).

Structures are written as SMILES. Read-outs that look alike come from different tables or passages of the source.

With `[O-][Cl+2]([O-])O` [chlorate], the “Arfd (acute reference dose)” value (as ClO3^−) was 0.0024 mg/kg BW·day. Moreover, for the setting “as NaClO3”, the “ADI (allowable daily intake)” value is on record as 0.003 mg/kg BW·day and the “Arfd (acute reference dose)” value is on record as 0.003 mg/kg BW·day.
